This is one part of the list. Entries with a potency or affinity are not part of this list. Calls of active or inactive are those of the source. No stated cut-off is given here; in the data, active means inhibition above about 50%; inactive means the rest.

By UniProt entry, the sequences of proteins in these tests, tags left out. Where a name states a change or a piece, a line headed by the entry shows the natural chain unless it says otherwise.
UniProt P41145: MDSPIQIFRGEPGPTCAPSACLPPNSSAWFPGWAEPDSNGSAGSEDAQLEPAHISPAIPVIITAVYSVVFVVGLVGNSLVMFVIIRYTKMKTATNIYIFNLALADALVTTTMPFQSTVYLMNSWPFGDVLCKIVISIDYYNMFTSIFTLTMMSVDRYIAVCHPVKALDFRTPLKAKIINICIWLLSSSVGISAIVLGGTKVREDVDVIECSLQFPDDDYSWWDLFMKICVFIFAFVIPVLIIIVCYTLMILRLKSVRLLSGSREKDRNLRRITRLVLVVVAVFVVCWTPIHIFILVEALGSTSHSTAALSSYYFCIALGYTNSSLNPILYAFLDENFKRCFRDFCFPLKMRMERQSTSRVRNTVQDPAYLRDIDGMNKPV

The target of the test is Kappa-type opioid receptor (Homo sapiens) (UniProt P41145). The test is described as follows: KOR antagonists, beta-arrestin recruitment, cell-based, luminescence, uHTS (AID 1778). The following applies: antagonist mode, at 10 µM, active compounds read high. In general terms: Recruitment of arrestin is a read-out of receptor activation apart from second messengers.
Consider `FC(F)(F)c1cccc(-n2nnnc2C2(N3CCOCC3)CCCCC2)c1`, for which the inhibition – broadly, the change of the read-out against control, counted positive when it falls – is inactive: 6.3%. For `Cc1cc(N2C(=O)CC(N3CCC(n4c(=O)[nH]c5ccccc54)CC3)C2=O)no1` (stereo not given), the inhibition was inactive: -6.4%. As for `CC(C)NC(=O)Cn1c(SCC(=O)N2CCc3ccccc3C2)nc2ccccc21`, the figure is inactive: 9%; as for `COc1cc(Cl)c(C)cc1NC(=O)Cn1c(NCCO)nc2ccccc21`, inactive: 16.5%. With `Cc1ccc(SCc2nc3ccccc3n2CC(=O)Nc2ccc(Cl)cc2)cc1`, the inhibition is inactive: -2.5%. On to `CCCCNc1nc2ccccc2n1CC(=O)Nc1ccc2c(c1)OCCO2`, for which the inhibition is inactive: 5.3%. As for `CN1CCC2(CC1)Nc1nc(SCc3ccc(Cl)cc3)nn1C1=C2CN(C)CC1`, the figure is inactive: -22.2%; as for `COc1ccc(OCC(O)Cn2c(=N)n(CCN3CCOCC3)c3ccccc32)cc1` (stereo not given), inactive: 15.7%. Turning to `CN(C)CCn1c(NC(=O)c2ccc(Cl)cc2)nc2ccccc21`, the inhibition is inactive: -59.6%.

In the case of `O=C(Cn1c(C(F)(F)F)nc2ccccc21)Nc1ccccc1C(=O)O`, the inhibition is inactive: 24.7%. For the compound `Clc1n[nH]nc1-c1nn[nH][15n]1`, the inhibition was inactive: 2%. As for `COc1ccc(/C=N/NC(=O)Cn2c(Cc3ccc(OC)c(OC)c3)nc3ccccc32)cc1OC`, the figure is inactive: 39%; as for `Cc1ccc(CSc2nc3ccncc3n2CC(=O)Nc2cc(C)cc(C)c2)cc1`, inactive: 12.7%.

As to `NNC(=O)Cn1c(-c2nonc2N)nc2ccccc21`, the inhibition was inactive: -4.3%. Consider `Cc1ccc(CNC(=O)CCCCCNC(=O)N2CCn3c2nc2ccccc23)cc1`, for which the inhibition is inactive: -20%. Turning to `S=C(Nc1ccccc1)N1CCn2c(nc3ccccc32)C1`, the inhibition was inactive: 10.4%.

Turning to `O=C(Cn1c(CSc2ccccc2)nc2ccccc21)Nc1ccccc1`, the inhibition is inactive: -6.6%. Take `Cc1cc(C)cc(NC(=O)Cn2c(-c3ccccc3Cl)nc3ccccc32)c1`: the inhibition is inactive: 19.5%. On to `CC(C)(C)C(=O)NC(Sc1ncccn1)C(Cl)(Cl)Cl` (stereo not given), for which the inhibition was inactive: 15%. On to `CCCC(=O)Nc1nnc(/C=C/c2ccccc2)s1`, for which the inhibition was inactive: -8.8%.

With `Cn1c(=O)c2ncn(CC(=O)Nc3cc(C(F)(F)F)ccc3N3CCOCC3)c2n(C)c1=O`, the inhibition is inactive: 16%. On to `Cn1c(=O)c2c(ncn2CC(=O)Nc2nnc(Cc3ccccc3)s2)n(C)c1=O`, for which the inhibition is inactive: 5.5%. Regarding `COc1cccc(NC(=S)N2CCn3c(nc4ccccc43)C2)c1`, the inhibition was inactive: -4.3%.

With `CC(C)C[C@H](NC(=O)N1CCn2c1nc1ccccc12)C(=O)NCc1ccc2c(c1)OCO2`, the inhibition was inactive: 0.9%. With `Cc1ccc(OCC(O)Cn2c(=N)n(CCN3CCCCC3)c3ccccc32)cc1` (stereo not given), the inhibition was inactive: 16.5%. Turning to `N=c1n(CCN2CCCCC2)c2ccccc2n1CC(O)c1cccc(Br)c1` (stereo not given), the inhibition is inactive: 3.5%.

Regarding `CCN(CC)CCn1c(NCc2ccco2)nc2ccccc21`, the inhibition was inactive: -6.7%.

With `Cc1nc2ccccc2n1CC(=O)N/N=C\C=C\c1ccccc1`, the inhibition is inactive: 13.3%.

As for `CCc1cccc(NC(=O)Cn2c3[n+](c4ccc(C(F)(F)F)cc42)CCCCC3)c1`, the inhibition is inactive: -9.1%. As for `Cn1c(=O)n(Cc2ccccc2F)c(=O)c2c1nc1n2CCN1Cc1ccco1`, the inhibition was inactive: -9.7%. On to `Cn1c(=O)c2c(nc(N3CCCCC3)n2CCNC2=NCCC2)n(C)c1=O`, for which the inhibition was inactive: 34.7%. Regarding `CCN(CC)c1ccc(CNc2nc3ccccc3n2CCN2CCCCC2)cc1`, the inhibition is inactive: -15.9%.

Consider `Cn1c(=O)c2ncn(CC(=O)N/N=C/C=C/c3ccccc3)c2n(C)c1=O`, for which the inhibition was inactive: -9.4%.

For `COc1ccccc1C(=O)Nc1ccc2c(c1)nc1n2CCN(Cc2ccccc2)C1`, the inhibition was inactive: -20.6%. Then `Cc1ccc(NC(=O)C2CC(=O)Nc3nc4ccccc4n32)c(C)c1` (stereo not given), with inactive: 15.3%; and `O=C(CCNC(=O)N1CCn2c1nc1ccccc12)NCc1ccccc1`, with inactive: -3.4%.

Regarding `COc1ccc(N(C(=O)Cn2cnc3ccccc32)C(C(=O)NC2CCCCC2)c2ccccc2)cc1` (stereo not given), the inhibition is inactive: 19.9%. For `Cc1ccc2c(c1)C1CN(C)CCC1N2C(=O)c1cccc(S(=O)(=O)N2CC(C)CC(C)C2)c1` (stereo not given), the inhibition is inactive: -27.8%. Then `CN(C(=O)Cc1ccc(Cl)c(Cl)c1)[C@@H]1CCCC[C@H]1N1CCCC1`, with inactive: -21%; and `CC(C)/C=N\N=C(\N)N[N+](=O)[O-]`, with inactive: -0.7%; and `COc1ccc(CCNC(=O)CCCCCNC(=O)N2CCn3c2nc2ccccc23)cc1OC`, with inactive: 3.2%. Turning to `O=C(Nc1nc2ccccc2n1CCN1CCOCC1)c1ccc(COc2ccccc2Br)o1`, the inhibition was inactive: -27.3%. For the compound `O=C(Cn1c(CO)nc2ccccc21)NCc1ccc2c(c1)OCO2`, the inhibition is inactive: 24.8%. `Cc1cccc(N2CCN(C(=O)Cn3cnc4c3c(=O)n(C)c(=O)n4C)CC2)c1C`: the inhibition was inactive: 27.6%. Regarding `O=C(Cn1c(COc2ccc(Cl)cc2)nc2ccccc21)NCC(F)(F)F`, the inhibition was inactive: 7.8%. `O=[As](O)(c1ccccc1Br)c1ccccc1Br`: the inhibition was inactive: 15.2%. With `O=C(Nc1nc2ccccc2n1CCN1CCCCC1)c1ccc(Cl)cc1`, the inhibition is inactive: -23.7%. As for `CC1CN(C(=O)Cn2c(C(F)(F)F)nc3ccccc32)CC(C)O1` (stereo not given), the inhibition is inactive: 28.9%. For the compound `Fc1ccc(Cn2nnnc2CN2CCC(n3nnc4cc(C(F)(F)F)ccc43)CC2)cc1`, the inhibition was inactive: 16.4%. As for `CCOC(=O)Cn1c(=O)c2c(nc3n2CCN3c2ccc(C)cc2)n(C)c1=O`, the inhibition is inactive: 13.3%. Consider `CN(C)CCCNC(=S)N1CCn2c(nc3ccccc32)C1`, for which the inhibition was inactive: 27.7%. For the compound `COCCN(C(=O)Cn1c(C(F)(F)F)nc2ccccc21)c1c(N)n(Cc2ccccc2)c(=O)[nH]c1=O`, the inhibition was inactive: 22.2%. For `Brc1ccc(/C=N/c2nc3ccccc3n2CCN2CCOCC2)cc1`, the inhibition was inactive: 15.4%. With `c1coc(CNc2nc3ccccc3n2CCN2CCOCC2)c1`, the inhibition is inactive: -53.2%. In the case of `Cc1cccc(Cn2c(=O)c3c(nc4n3CCN4Cc3ccco3)n(C)c2=O)c1`, the inhibition is inactive: -24.4%. Turning to `Cc1nn(-c2ccccc2)c2c1P(=O)(N1CCOCC1)N(C)C(c1ccccc1)=N2` (stereo not given), the inhibition is inactive: -20.9%. Consider `CCN(CC)c1ccc(NC(=O)Cn2c(C(C)NC(=O)c3ccccc3)nc3ccccc32)cc1` (stereo not given), for which the inhibition is inactive: 17%. For `Cc1ccc(C(=O)OC2CN3CCC2CC3)cc1` (stereo not given), the inhibition is inactive: 17.1%. As for `CC1CCC(C(C)C)C(OP(=O)(Nc2ccccn2)c2ccccc2)C1` (stereo not given), the inhibition is inactive: 24.9%. On to `CCN(CC)C(=O)Cn1c(=O)n(C)c2ccccc21`, for which the inhibition was inactive: -25.1%. Consider `CC(C)(C)NC(=O)Cn1c(SCC(=O)NCc2cccs2)nc2ccccc21`, for which the inhibition was inactive: 11.7%. `O=C(Cn1c(SCC(=O)N2CCc3ccccc32)nc2ccccc21)NC1CCCC1`: the inhibition was inactive: -0.6%. Turning to `COc1cc2c(cc1NC(=O)Cn1cnc3c1c(=O)n(C)c(=O)n3C)oc1ccccc12`, the inhibition was inactive: 9.3%. Then `O=C(Cn1cnc2ccccc21)Nc1cc(C(F)(F)F)ccc1N1CCOCC1`, with inactive: 18.1%; and `O=C(Cn1c(C(F)(F)F)nc2ccccc21)NCCN1CCCC1`, with inactive: -11.7%. As for `Cc1cccc(C)c1NC(=O)N1CCC(n2c(=O)[nH]c3ccccc32)CC1`, the inhibition was inactive: -29.4%. Turning to `CCn1cc(Cl)c(C(=O)Nc2nc3ccccc3n2CCN2CCCCC2)n1`, the inhibition is inactive: 8.3%. Take `CCCC(=O)Nc1ccc(C(=O)/C=C/c2ccc(SC)cc2)cc1`: the inhibition was inactive: 3.4%. Then `COc1ccc(Cl)cc1NC(=O)Cn1c(NCCO)nc2ccccc21`, with inactive: 6.4%; and `CCN1C(=O)CC(N2CCC(Nc3ccc(OC)cc3)CC2)C1=O` (stereo not given), with inactive: 28.5%; and `Cn1c(=O)c2ncn(CC(=O)NCCOc3ccc(C(C)(C)C)cc3)c2n(C)c1=O`, with inactive: 40.8%. As to `O=C(CSc1nc2ccccc2n1CC(=O)NCc1ccccc1)NCc1ccco1`, the inhibition is inactive: -14.8%.

Regarding `CC(=O)Nc1ccc(NC(=O)C2CC(=O)Nc3nc4ccccc4n32)cc1` (stereo not given), the inhibition is inactive: 17.9%. For `O=C(/C=C/c1ccccc1)OC1CN2CCC1CC2` (stereo not given), the inhibition was inactive: 10%. Turning to `COc1cccc(NC(=O)Cn2c(SCC(=O)N3CCOCC3)nc3ccccc32)c1`, the inhibition is inactive: -32.2%. Then `COc1ccc(Cc2nc3ccccc3n2CC(=O)N/N=C/c2ccc(C)cc2O)cc1OC`, with inactive: -19.9%. As for `CCN(c1ccccc1)S(=O)(=O)c1ccc(OC)c(NC(=O)Cn2cnc3c2c(=O)n(C)c(=O)n3C)c1`, the figure is inactive: 3.6%; as for `O=S(=O)(c1ccc(Br)cc1)N1CCn2c(nc3ccccc32)C1`, inactive: -53.7%; as for `O=S(=O)(c1ccc(Cl)c(Cl)c1)N1CCc2nc3ccccc3n2CC1`, inactive: -23.6%. In the case of `Cn1c(=O)c2c(ncn2CC(=O)N/N=C/C=C/c2ccccc2)n(C)c1=O`, the inhibition was inactive: -14.3%. On to `CC1CC(C)CN(Cc2nc3c(c(=O)n(C)c(=O)n3C)n2CCN2CCOCC2)C1` (stereo not given), for which the inhibition is inactive: -9.9%. Take `O=S(=O)(Nc1ccc2c(c1)nc1n2CCN(Cc2ccccc2)C1)c1ccccc1`: the inhibition was inactive: -16.8%. As for `N=c1n(CCN2CCOCC2)c2ccccc2n1Cc1ccccc1Br`, the inhibition is inactive: -0.3%.

As for `CCc1ccccc1NC(=O)CSc1nc2ccccc2n1CC(=O)N(C)C`, the inhibition is inactive: -8.7%. Then `O=S(=O)(Nc1ccc2c(c1)nc1n2CCN(Cc2ccccc2)C1)c1ccc(Cl)cc1`, with inactive: 2.4%. Then `O=C(Cn1cnc2ccccc21)N/N=C/c1cccs1`, with inactive: 17.2%; and `CN(C)CCn1cnc2c1c(=O)[nH]c(=O)n2Cc1ccccc1`, with inactive: -32.1%; and `O=C1CC(N2CCC(n3c(=O)[nH]c4ccccc43)CC2)C(=O)N1c1ccc(F)cc1` (stereo not given), with inactive: 2%. As for `CC(c1ccccc1)N1CCn2c(nc3cc(NC(=O)c4cccs4)ccc32)C1` (stereo not given), the figure is inactive: -4.1%; as for `CC(C)N(C(=O)Cn1c(SCC(=O)NCc2ccc3c(c2)OCO3)nc2ccccc21)C(C)C`, inactive: 1.1%.

These data come from PubChem BioAssay AID1778 (Sanford-Burnham Center for Chemical Genomics, 2009).
